Compounds with a hit are over-represented: about 0.43% of the library has one in this group of screens.
HCMV NEC inh: cytomegalovirus nuclear egress complex inhibition. HTRF UL50-UL53 interaction, normalized percent inhibition. inhibition, % (no concentration beside the values). 0.15% of 190,000 active; in the data active = inhibition above about 27%, passing the limit was not always enough
GIV-Gai inh: inhibitors of GIV GBA-motif binding to rat Galpha-i3; percent of control (FP), % (concentration not given with the values); AID 1224905; Galpha-i3/FITC-GIV peptide fluorescence polarization, 90 min; stronger effect = lower value; scaled: aluminum fluoride 0%, vehicle 100%; 210,000 compounds, 0.42% hits; P08753;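 active means replicate mean at 85% of control or lower, very high polarization wells dropped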;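 further: wells of about 15 µL received 100 nL stock; the first replicate is given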
GIV-Gai FP conf: GIV-Galpha-i3 inhibition, FP confirmation | AID 1259350 | 38% of 580 active | fluorescence polarization, mP at 100 µM | FITC-GIV peptide binding to Galphai3, fluorescence polarization; hits give low values | shares compounds with GIV-Gai inh;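 active = inhibition score of 15 or more, meaning 100 minus mean polarization as percent of control over three replicates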;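 also: lower mP means peptide displaced from Galphai3 so more inhibition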
GIV Gai AS conf: GIV-Galpha-i3 inhibition, AlphaScreen confirmation; shares compounds with GIV-Gai inh; AlphaScreen Galphai3-GIV binding, purified proteins, 90 min; hits give low values; AlphaScreen counts at 100 µM; 39% of 580 active; AID 1259351;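 active = inhibition score at or above a set limit, where the score is 100 minus the three-replicate mean percent of control signal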
Numbers stand for hits; n = inactive; x = not tested or not shown.

SMILES | HCMV NEC inh | GIV-Gai inh | others
CCCCN(CC)CCNC(=O)c1ccc(NC(=O)N2CCSc3nc(C)cc(C)c32)cc1 | n | n
COc1ccc(NS(=O)(=O)c2cc(-c3noc(C(=O)N4CCCC4)n3)sc2C)c(OC)c1 | x | n
CC(Sc1nc2ccccc2c(=O)n1C)C(=O)Nc1ccc2c(c1)OCCO2 (configuration not stated) | 34 | x
Cc1ccccc1NC(=O)C(C)Sc1nc2ccccc2c(=O)n1C (configuration not stated) | n | n
COc1ccc(C2=CSC3=NS(=O)(=O)CCN23)cc1OC | n | x
O=C(c1ccc2c(c1)[nH]c(=S)n1c3ccccc3nc21)N1CCN(c2ccccn2)CC1 | x | n
CC(C)NC(=O)C1CCN(C(=O)c2ccc(-n3ccc4ccccc43)s2)CC1 | n | n
Cc1cc(C2CCCN2Cc2cc(Cl)ccc2O)on1 (configuration not stated) | x | n
CCOC(=O)c1cc2c(cc1C(=O)OCC)[n+](CC)c(/C=C/C=C1N(CC)c3cc(Cl)c(Cl)cc3N1CC)n2CC | x | n
CC(=O)OCCCN1/C(=C\C=C\c2n(CCCOC(C)=O)c3cc(Cl)c(Cl)cc3[n+]2C)N(C)c2cc(Cl)c(Cl)cc21 | x | 60
COc1cc(C(CC(=O)NCCN2CCOCC2)N2Cc3ccccc3C2=O)cc(OC)c1OC (configuration not stated) | n | n
CC(C)CNC(=O)C1CCN(c2ccc(-c3ccccc3)nn2)CC1 | n | n
CCCCCCCNC(=O)C1CCN(c2ccc(-c3ccccc3)nn2)CC1 | 31 | n
NC(=O)Cn1cnc2c(-c3ccc(F)cc3)nsc2c1=O | x | n
CC(C)(C)C(=O)Nc1ccc2c(c1)C(=O)C(=O)c1ccccc1-2 | 122 | x
CC(C)(C)C(=O)Nc1ccc(-c2nc3ccccc3s2)c(O)c1 | n | x
O=C1Nc2ccc(Br)cc2/C1=C/c1cc2c([nH]1)CCCC2 | n | x
CN(C)S(=O)(=O)c1ccc2c(c1)/C(=C/c1cc3c([nH]1)CCCC3)C(=O)N2 | n | -21
C=CCN1C(=O)NC(=O)/C(=C/c2ccc(OCc3ccccc3F)c(OCC)c2)C1=O | n | n
C=CCN1C(=O)NC(=O)/C(=C/c2ccccc2OCc2ccc(Cl)cc2)C1=O | 82 | n
CN1C(=O)/C(=C/c2cn(CC(=O)NCc3ccco3)c3ccccc23)C(=O)NC1=S | n | n
O=C(Cn1cc(/C=C2\C(=O)NC(=O)N(Cc3ccccc3)C2=O)c2ccccc21)NCc1ccco1 | n | -35
C=CCN1C(=O)NC(=O)/C(=C\c2cn(Cc3ccccc3)c3ccccc23)C1=O | x | 21
C=CCN1C(=O)NC(=O)/C(=C/c2cccc(OCc3ccccc3Cl)c2)C1=O | 73 | n
CN1C(=O)/C(=C/c2cn(Cc3ccccc3)c3ccccc23)c2ccccc21 | x | n
SMILES | HCMV NEC inh | GIV-Gai inh | others
C=CCN1C(=O)NC(=O)/C(=C/c2ccc(OCc3ccc(Cl)cc3)c(OC)c2)C1=O | n | n
O=C1C=CC=C2C3CC(CC12)CN(c1nc(Cl)nc(NCc2ccco2)n1)C3 (configuration not stated) | n | n
CN1C(=O)COc2cc(-c3noc(C(=O)NCc4cccnc4)n3)ccc21 | x | n
CCOC(=O)c1ccc2c(c1)n(CCCS(=O)(=O)[O-])c(/C=C/C=C1\N(CC)c3cc(Cl)c(Cl)cc3N1CCOc1ccccc1)[n+]2CC | x | n
CCOC(=O)c1ccc2c(c1)N(CCCS(=O)(=O)O)/C(=C/C=C/c1n(CCCS(=O)(=O)[O-])c3cc(C(=O)OCC)ccc3[n+]1CC)N2CC | x | -62
COc1ccc(S(=O)(=O)N2CCC3(CC2)Nc2ccccc2-n2cccc23)cc1OC | n | n
COc1cc(CN2CCC3(CC2)Nc2ccccc2-n2cccc23)cc(OC)c1OC | 60 | n
COc1ccc(NS(=O)(=O)c2cc(-c3cc(C(F)(F)F)on3)sc2C)cc1Cl | x | n
COc1ccc(C(=O)NCC(c2ccccc2)c2c[nH]c3ccccc23)cc1Cl (configuration not stated) | n | n
CCNc1c2c3c(cccc3n(C)c1=O)C(=O)c1ccccc1-2 | n | x
Cn1c(=O)c(NC2CCCCC2)c2c3c(cccc31)C(=O)c1ccccc1-2 | x | 3.5
CCOC(=O)/C=C1\CCC(/C=N/Nc2ccccc2)=C1N1CCOCC1 | n | x
CCOC(=O)c1c(C)oc2ccc(N(C(=O)c3ccc([N+](=O)[O-])cc3)S(=O)(=O)c3ccc(Br)cc3)cc12 | x | n
COC(=O)CC1C(=O)NCCN1C(=O)c1ccc(OC)cc1 (configuration not stated) | n | x
COC(=O)CC1SC(=O)NC1=Nc1ccc(C)cc1 (configuration not stated) | n | x
COC(=O)CC1SC(=O)NC1=S (configuration not stated) | n | -68
CCOC(=O)C1=NNC2C(=O)N(c3ccccc3F)C(=O)C12 (configuration not stated) | x | n
CS(=O)(=O)Nc1cccc(C(=O)OCC(=O)Nc2ccccc2F)c1 | n | x
COc1cc(C=C2C(=O)NC(=S)NC2=O)cc(Cl)c1OCCOc1ccc(C)cc1 | n | n
O=C(c1ccc2ncsc2c1)N1CCCCC1 | n | x
O=C(O)c1ccc2ncsc2c1 | 71 | x
Nc1ccccc1C(=O)N1N=C(C(F)(F)F)CC1(O)c1ccccc1 (configuration not stated) | x | n
O=C(Nc1ccccc1C(=O)OC1CCCCC1=O)c1ccco1 (configuration not stated) | n | x
CNc1cccc2cccc(OC)c12 | n | x
COc1ccc2cccc3c2c1C=CC3=O | n | -89
SMILES | HCMV NEC inh | GIV-Gai inh | others
CCN(Cc1ccccc1)c1ccc(C(=O)O)cc1NS(=O)(=O)c1ccc(F)cc1 | n | n
CN(C)c1ccc(/C=c2/sc3nc(-c4ccc(Cl)cc4)nn3c2=O)cc1 | x | n
CCN(CC)c1ccc(/C=c2\sc3nc(-c4ccco4)nn3c2=O)cc1 | n | -83
CCC(C)NC(=O)CSc1nc2ccccc2n(CC)c1=O (configuration not stated) | n | n
O=C1c2ccccc2C(=O)N1Cc1ccccc1 | n | n
CCOc1ccc(/C=C2/C(=O)Nc3ccccc32)cc1 | n | x
CCO/C=C1\C(=O)N(C)C(=O)c2ccccc21 | 77 | x
CCO/C=C1/C(=O)N(Cc2ccc(OC)cc2)C(=O)c2ccccc21 | 57 | x
CCO/C=C1/C(=O)NC(=O)c2ccccc21 | 98 | x
CCO/C=C1/C(=O)N(c2ccc(Cl)cn2)C(=O)c2ccccc21 | n | x
COC(=O)c1sc2ccccc2c1S(=O)(=O)NCc1ccco1 | n | n
COC(=O)c1c(N)c(C#N)c2n1CCCC2 | n | n
COC(=O)c1c(N)c(C#N)c2n1CCC2 | x | 80 | GIV-Gai FP conf=49;GIV Gai AS conf=20250
O=C(NCCc1nc2cccnc2n1-c1ccccc1)Nc1ccc2c(c1)OCCO2 | n | n
Oc1ccc2ncccc2c1C(Nc1ccccn1)c1ccco1 (configuration not stated) | n | 79 | GIV-Gai FP conf=n;GIV Gai AS conf=5282
Oc1ccccc1C(Nc1ccccn1)c1ccc2cccnc2c1O (configuration not stated) | n | x
CCOC(=O)c1cc2ccccc2o1 | n | n

Bioassay records as filed in PubChem.
